Laboratory results published in patent US20060263355A1, “Treatment of bone disorders” (priority 2005, published 2006).

Experiments:
[1] = Bone effects in chronic OVX animals (Example 8); settings: chronic OVX rats, treatment for 5 weeks
[2] = Clinical study of rituximab in osteoporosis (Example 3); settings: osteoporosis patients, IV
[3] = Prevention of bone loss in acute OVX animals (Example 7); settings: OVX rats, 35 days

| Substance | tests of femurs, tibiae and lumbar vertebrae 1 to 4 versus placebo-treated controls (bone formation) [1] | bone osteoblasts (biomarkers), bone densitometry and fracture rate versus placebo [2] | prevention of bone loss versus control groups [3] |
| --- | --- | --- | --- |
| humanized 2H7: humanized CD20 antibody, or antigen-binding fragment, comprising at least CDR H3 of SEQ ID NO:12 and human VHIII framework | will show improvement in one or more of these tests | will improve bone osteoblasts as determined by biomarkers and improve bone densitometry and decrease fracture rate | effective versus the control groups in preventing bone loss |
| rituximab | will show improvement in one or more of these tests | will improve bone osteoblasts as determined by biomarkers and improve bone densitometry and decrease fracture rate | effective versus the control groups in preventing bone loss |
